Assay results: ChEMBL document CHEMBL4304809 (ACS Med Chem Lett, 2019)

The chains behind the UniProt entries cited, without tags or fusion partners. Where a name states a change or a piece, a line headed by the entry shows the natural chain unless it says otherwise.
UniProt Q99558: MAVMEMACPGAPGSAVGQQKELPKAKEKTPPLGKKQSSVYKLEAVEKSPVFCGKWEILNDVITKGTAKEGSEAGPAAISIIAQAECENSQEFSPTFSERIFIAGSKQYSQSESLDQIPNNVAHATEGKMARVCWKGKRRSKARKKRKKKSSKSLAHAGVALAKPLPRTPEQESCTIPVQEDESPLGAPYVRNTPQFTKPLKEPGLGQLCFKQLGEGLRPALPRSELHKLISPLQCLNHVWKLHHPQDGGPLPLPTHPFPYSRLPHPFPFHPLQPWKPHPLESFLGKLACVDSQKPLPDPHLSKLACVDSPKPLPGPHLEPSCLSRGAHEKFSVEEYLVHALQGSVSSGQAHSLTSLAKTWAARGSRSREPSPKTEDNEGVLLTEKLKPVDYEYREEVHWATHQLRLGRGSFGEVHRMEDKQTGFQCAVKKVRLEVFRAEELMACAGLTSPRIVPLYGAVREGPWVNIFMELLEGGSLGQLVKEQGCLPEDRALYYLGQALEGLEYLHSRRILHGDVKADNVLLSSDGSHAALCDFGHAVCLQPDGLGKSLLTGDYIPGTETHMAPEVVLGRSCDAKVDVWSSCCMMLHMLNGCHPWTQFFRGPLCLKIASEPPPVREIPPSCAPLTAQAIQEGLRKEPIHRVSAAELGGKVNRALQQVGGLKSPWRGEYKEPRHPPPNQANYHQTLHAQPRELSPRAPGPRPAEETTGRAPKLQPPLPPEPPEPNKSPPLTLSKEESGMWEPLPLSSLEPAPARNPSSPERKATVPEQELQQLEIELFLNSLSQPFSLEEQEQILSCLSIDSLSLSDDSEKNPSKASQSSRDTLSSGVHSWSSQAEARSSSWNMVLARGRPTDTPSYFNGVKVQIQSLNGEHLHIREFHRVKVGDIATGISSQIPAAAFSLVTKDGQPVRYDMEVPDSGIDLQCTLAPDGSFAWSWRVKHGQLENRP

Molecular target: Mitogen-activated protein kinase kinase kinase 14 (Homo sapiens, UniProt Q99558)
Test: Inhibition of NIK (unknown origin) using ATP as substrate by transcreener ADP assay based fluorescence correlation spectroscopic analysis
Assay type: single protein

| Ki [nM] | SMILES |
| --- | --- |
| > 1250 | Cc1cnc([C@@](C)(O)C#Cc2ccc3c(c2)-c2nc(C(N)=O)cn2C2CC3C2)o1 |
| 0.9 | Cc1cnc([C@](C)(O)C#Cc2ccc3c(c2)-c2nc(C(N)=O)cn2C2CC3C2)o1 |
| 1.7 | Cc1cc([C@](C)(O)C#Cc2cc3c(cc2F)C2CC(C2)n2c-3nc(C(N)=O)c2C2CC2)no1 |
